# Experiments:
# Protein sequences, listed by entry. Tags and fused reporters are not part of them.
# UniProt Q6RI86, whole entry, looked up: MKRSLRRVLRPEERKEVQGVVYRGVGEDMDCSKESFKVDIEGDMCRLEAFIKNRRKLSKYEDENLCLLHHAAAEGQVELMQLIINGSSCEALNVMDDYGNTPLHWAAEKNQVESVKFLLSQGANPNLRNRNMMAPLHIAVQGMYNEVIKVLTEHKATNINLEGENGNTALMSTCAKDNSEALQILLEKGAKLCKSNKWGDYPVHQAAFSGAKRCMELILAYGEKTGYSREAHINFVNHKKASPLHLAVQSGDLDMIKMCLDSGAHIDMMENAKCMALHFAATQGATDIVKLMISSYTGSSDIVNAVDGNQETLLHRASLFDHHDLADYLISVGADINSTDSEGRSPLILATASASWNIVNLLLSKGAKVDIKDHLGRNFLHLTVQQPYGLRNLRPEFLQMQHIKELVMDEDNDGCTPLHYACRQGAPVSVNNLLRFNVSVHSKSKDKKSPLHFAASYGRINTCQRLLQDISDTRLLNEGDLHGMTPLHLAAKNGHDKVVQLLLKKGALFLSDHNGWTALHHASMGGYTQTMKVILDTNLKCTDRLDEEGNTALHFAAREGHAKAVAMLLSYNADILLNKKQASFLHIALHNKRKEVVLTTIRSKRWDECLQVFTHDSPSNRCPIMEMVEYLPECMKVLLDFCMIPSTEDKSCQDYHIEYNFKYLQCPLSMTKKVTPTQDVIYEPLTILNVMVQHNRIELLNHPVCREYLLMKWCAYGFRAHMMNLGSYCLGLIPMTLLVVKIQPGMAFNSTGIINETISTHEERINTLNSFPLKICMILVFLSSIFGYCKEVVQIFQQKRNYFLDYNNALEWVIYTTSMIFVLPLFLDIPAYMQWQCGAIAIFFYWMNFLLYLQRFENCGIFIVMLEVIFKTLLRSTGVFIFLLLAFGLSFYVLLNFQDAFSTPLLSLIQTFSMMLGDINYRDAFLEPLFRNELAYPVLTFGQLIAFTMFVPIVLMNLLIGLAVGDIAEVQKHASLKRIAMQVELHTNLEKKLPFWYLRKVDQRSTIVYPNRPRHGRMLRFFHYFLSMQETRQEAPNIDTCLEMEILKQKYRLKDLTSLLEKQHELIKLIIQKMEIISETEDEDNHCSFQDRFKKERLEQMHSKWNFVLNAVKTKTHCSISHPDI
# UniProt O75762, whole entry, looked up: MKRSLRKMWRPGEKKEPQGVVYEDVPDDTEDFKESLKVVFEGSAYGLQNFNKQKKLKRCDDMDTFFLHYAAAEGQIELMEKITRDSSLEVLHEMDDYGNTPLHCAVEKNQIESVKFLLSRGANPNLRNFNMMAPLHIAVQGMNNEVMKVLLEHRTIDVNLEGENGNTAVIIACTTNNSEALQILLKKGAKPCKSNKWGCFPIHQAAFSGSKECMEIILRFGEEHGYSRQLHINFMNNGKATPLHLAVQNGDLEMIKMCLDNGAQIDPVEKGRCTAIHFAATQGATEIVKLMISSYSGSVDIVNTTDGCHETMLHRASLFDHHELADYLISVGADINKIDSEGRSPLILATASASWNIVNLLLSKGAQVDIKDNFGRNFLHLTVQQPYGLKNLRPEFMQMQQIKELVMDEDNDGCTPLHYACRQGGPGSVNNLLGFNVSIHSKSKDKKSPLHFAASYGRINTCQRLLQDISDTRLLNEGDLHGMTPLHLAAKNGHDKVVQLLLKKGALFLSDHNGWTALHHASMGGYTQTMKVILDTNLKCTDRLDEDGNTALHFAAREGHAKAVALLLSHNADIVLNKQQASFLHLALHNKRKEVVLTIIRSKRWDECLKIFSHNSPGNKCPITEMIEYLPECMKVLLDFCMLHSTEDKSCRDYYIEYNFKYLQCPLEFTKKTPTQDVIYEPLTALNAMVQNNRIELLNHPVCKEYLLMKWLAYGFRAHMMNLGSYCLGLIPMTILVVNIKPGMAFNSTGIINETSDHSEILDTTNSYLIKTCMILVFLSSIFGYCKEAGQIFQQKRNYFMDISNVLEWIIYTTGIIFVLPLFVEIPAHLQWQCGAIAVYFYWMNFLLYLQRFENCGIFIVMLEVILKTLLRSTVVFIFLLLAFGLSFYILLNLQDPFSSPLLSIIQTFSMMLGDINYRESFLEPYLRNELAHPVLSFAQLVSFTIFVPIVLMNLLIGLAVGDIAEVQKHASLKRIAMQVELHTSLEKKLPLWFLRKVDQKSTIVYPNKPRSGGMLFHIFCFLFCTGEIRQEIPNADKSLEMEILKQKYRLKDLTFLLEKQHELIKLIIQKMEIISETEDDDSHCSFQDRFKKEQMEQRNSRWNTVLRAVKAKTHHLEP
# [1] = molecular target: Transient receptor potential cation channel subfamily A member 1 (Rattus norvegicus, UniProt Q6RI86); assay: Agonist activity at TRPA1 channel in rat DRG neurons assessed as increase in intracellular calcium influx
# [2] = molecular target: Transient receptor potential cation channel subfamily A member 1 (Homo sapiens, UniProt O75762); assay: Antagonist activity at human TRPA1 channel assessed as inhibition of allyl isothiocyanate-induced intracellular calcium influx
Compound,EC50 [1] [nM],IC50 [2] [nM]
O=C(NC(Sc1ccc(Cl)cc1)C(Cl)(Cl)Cl)c1ccccc1 (configuration not stated),66,
CC(=O)SC(NC(=O)c1ccc(Cl)cc1)C(Cl)(Cl)Cl (configuration not stated),15,1100
Cc1ccc(C(=O)NC(Sc2ccc(Cl)cc2)C(Cl)(Cl)Cl)cc1 (configuration not stated),3.8,1400
COc1ccc(C(=O)NC(Sc2ccc(Cl)cc2)C(Cl)(Cl)Cl)cc1 (configuration not stated),115,
Cc1ccc(C(=O)NC(Sc2ccc([N+](=O)[O-])cc2)C(Cl)(Cl)Cl)cc1 (configuration not stated),4,
